Values quoted from earlier work in patent US10016389B2, “Method of making liposomes, liposome compositions made by the methods, and methods of using the same” (LivOn Laboratories, priority 2011, dated 2018).

Details: doses up to 10,000 mg daily for up to three years

O=C1O[C@H]([C@@H](O)CO)C(O)=C1O [vitamin C, L-ascorbic acid]
safety of daily consumption: safe
